The values below come from patent US20020111340A1, “Aminoalkoxybiphenylcarboxamides as histamine-3 receptor ligands and their therapeutic applications” (priority 2000, published 2002).

Sequences of proteins named here, by UniProt entry; tags and fusion partners are left off. A change or cut given only in a name is not applied to a line headed by its entry.
UniProt Q9QYN8: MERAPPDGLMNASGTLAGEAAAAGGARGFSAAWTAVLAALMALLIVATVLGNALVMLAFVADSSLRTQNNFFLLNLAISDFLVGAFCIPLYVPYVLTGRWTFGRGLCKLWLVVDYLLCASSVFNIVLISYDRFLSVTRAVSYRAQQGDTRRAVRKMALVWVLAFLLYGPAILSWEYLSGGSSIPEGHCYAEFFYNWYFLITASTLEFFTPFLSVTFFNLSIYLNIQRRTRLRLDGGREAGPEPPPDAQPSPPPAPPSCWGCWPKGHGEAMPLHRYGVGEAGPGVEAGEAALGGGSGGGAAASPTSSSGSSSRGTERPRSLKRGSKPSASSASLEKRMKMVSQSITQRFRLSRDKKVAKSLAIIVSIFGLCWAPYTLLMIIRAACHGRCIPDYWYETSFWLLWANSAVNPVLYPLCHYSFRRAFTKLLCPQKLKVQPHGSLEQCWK

The test deals with T1, histamine-3 receptor (Rattus norvegicus, UniProt Q9QYN8).
T1 construct: Rat cortical membranes (12 mg wet weight/tube) were incubated with; from tissue; host or cells: male Sprague-Dawley rat brain cortex membranes
The test is described as follows: Histamine-3 receptor binding, displacement of (3H)-N-α-methylhistamine from rat cortical membranes. Particulars: male Sprague-Dawley rat brain cortical membranes; (3H)-N-α-methylhistamine ~0.6 nM; 30 minutes at 25° C.; Cheng-Prusoff.

In general, Ki refers to the equilibrium dissociation constant of an inhibitor or competing ligand from its target. Higher therefore signals a looser hold on the target. In the case of `C[C@@H]1CC[C@@H](C)N1CCCOc1ccc(-c2ccc(C(=O)N3[C@H](C)CC[C@H]3C)cc2)cc1` [Example 6, (2R,5R)-1-[(4′-{3-[(2R,5R)-2,5-dimethylpyrrolidinyl]propoxy}[1,1′-biphenyl]-4-yl)carbonyl]-2,5-dimethylpyrrolidine], affinity was put at a Ki of 4.2 nM.
